Biological target: Mouse CB1R (Mus musculus, UniProt P47746)
Assay: Competitive binding assay in mouse brain membranes, [^3H]-CP55940
Design: mouse brain membranes expressing endogenous CB1R; from tissue; host or cells: mouse brain membranes
Protocol: Mouse brain was resuspended in 2 mM Tris–EDTA, 320 mM sucrose, 5 mM MgCl2 (pH 7.4), homogenized using a glass potter, and centrifuged 3 times, each at 1000 g for 10 min.

The chains behind the UniProt entries cited, without tags or fusion partners.
UniProt P47746, whole entry: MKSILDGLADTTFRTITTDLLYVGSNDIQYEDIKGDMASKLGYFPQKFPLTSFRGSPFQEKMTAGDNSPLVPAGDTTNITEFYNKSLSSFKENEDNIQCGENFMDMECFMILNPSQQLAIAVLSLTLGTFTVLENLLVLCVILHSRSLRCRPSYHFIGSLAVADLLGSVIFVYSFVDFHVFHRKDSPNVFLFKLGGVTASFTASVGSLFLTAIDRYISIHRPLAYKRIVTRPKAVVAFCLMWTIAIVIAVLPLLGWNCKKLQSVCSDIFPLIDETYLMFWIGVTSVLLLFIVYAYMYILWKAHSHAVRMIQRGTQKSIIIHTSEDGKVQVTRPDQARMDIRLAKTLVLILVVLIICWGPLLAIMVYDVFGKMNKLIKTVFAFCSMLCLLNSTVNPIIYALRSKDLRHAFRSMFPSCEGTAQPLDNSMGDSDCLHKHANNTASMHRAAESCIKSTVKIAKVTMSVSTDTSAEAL

- Mean ± SEM % inhibition of control, Mouse CB1R (competitive binding assay) (positive control 1 µM): 111.2 ± 5.6%
- inhibition at 1 µM (read-out: Mean ± SEM % inhibition of control, Mouse CB1R (competitive binding assay), positive control 1 µM): 112%
Structure (SMILES): Cc1c(C(=O)NN2CCCCC2)nn(-c2ccc(Cl)cc2Cl)c1-c1ccc(Cl)cc1 [Rimonabant]
